Experimental data from US8716029B1, “Carbon nanotube sensors employing synthetic multifunctional peptides for surface functionalization” (dated 2014).
Only a part of the results on these compounds is given; other tests are left out.

What was measured:
[1] = Bare SWNT-FET device response to vapors (source-drain current); settings: saturated vapor at 25° C., 1 atm: TNT 12 ppb, RDX 6.6 ppt, HPT 2100 ppm; gate and source-drain bias −0.5 and 0.2V
Procedure: (§1) To test the response of the device in a gaseous environment, the SWNT-FET device was exposed to TNT (12 ppb), RDX (6.6 ppt), and HPT (2100 ppm) vapors in a chamber saturated with each vapor at 25° C., 1 atm. The response of the SWNT-FET device was monitored by tracking the source-drain current (ISD). For example, a 4-probe station (MMR) equipped with a Keithley semiconductor parameter analyzer (SCS4200) may be used. As the device was exposed to the three chemicals, the source-drain current was monitored at a gate and source-drain bias voltage of −0.5 and 0.2V, respectively. Because of variations in the vapor pressure at the given experimental conditions, the selectivity of the functionalized SWNT-FET device was tested by comparing its response to that of the bare SWNT-FET device upon exposure to each chemical compound in turn.
FIG. 3 is a graph of the response of the bare SWNT-FET device to TNT 310 (circles), RDX 320 (triangles), and HPT 330 (squares). After introduction of each respective vapor 340 into the chamber, the ISD of the bare SWNT-FET decreased upon exposure to both TNT 310 and HPT 330 but remained virtually unchanged upon exposure to RDX 320.

[2] = tested on: P1ASP1C-functionalized SWNT-FET device; assay: P1ASP1C-functionalized SWNT-FET device response to vapors (source-drain current); settings: saturated vapor at 25° C., 1 atm: TNT 12 ppb, RDX 6.6 ppt, HPT 2100 ppm; gate and source-drain bias −0.5 and 0.2V
Procedure: as §1
FIG. 4 is a graph of the response of the P1ASP1C-functionalized SWNT-FET device to TNT 410 (circles), RDX 420 (triangles), and HPT 430 (squares). After introduction of each respective vapor 440, the ISD of the functionalized SWNT-FET was monitored as before. Upon exposure to RDX 420, the ISD remained virtually unchanged, just as it had done in FIG. 3 with the bare SWNT-FET.

## cyclotrimethylenetrinitramine
[1]
  change of source-drain current (ISD) of bare SWNT-FET upon vapor exposure: remained virtually unchanged
[2]
  change of source-drain current (ISD) of P1ASP1C-functionalized SWNT-FET upon vapor exposure: remained virtually unchanged

## Cc1c([N+](=O)[O-])cc([N+](=O)[O-])cc1[N+](=O)[O-]
[1]
  change of source-drain current (ISD) of bare SWNT-FET upon vapor exposure: decreased
[2]
  change of source-drain current (ISD) of P1ASP1C-functionalized SWNT-FET upon vapor exposure: marked increase
